From patent publication US6521650B1, “Amines as pharmaceutical agents” (Pfizer, Inc., priority 1997, dated 2003)

The chains behind the UniProt entries cited, without tags or fusion partners.
UniProt O77773, entry or part of it limits assumed: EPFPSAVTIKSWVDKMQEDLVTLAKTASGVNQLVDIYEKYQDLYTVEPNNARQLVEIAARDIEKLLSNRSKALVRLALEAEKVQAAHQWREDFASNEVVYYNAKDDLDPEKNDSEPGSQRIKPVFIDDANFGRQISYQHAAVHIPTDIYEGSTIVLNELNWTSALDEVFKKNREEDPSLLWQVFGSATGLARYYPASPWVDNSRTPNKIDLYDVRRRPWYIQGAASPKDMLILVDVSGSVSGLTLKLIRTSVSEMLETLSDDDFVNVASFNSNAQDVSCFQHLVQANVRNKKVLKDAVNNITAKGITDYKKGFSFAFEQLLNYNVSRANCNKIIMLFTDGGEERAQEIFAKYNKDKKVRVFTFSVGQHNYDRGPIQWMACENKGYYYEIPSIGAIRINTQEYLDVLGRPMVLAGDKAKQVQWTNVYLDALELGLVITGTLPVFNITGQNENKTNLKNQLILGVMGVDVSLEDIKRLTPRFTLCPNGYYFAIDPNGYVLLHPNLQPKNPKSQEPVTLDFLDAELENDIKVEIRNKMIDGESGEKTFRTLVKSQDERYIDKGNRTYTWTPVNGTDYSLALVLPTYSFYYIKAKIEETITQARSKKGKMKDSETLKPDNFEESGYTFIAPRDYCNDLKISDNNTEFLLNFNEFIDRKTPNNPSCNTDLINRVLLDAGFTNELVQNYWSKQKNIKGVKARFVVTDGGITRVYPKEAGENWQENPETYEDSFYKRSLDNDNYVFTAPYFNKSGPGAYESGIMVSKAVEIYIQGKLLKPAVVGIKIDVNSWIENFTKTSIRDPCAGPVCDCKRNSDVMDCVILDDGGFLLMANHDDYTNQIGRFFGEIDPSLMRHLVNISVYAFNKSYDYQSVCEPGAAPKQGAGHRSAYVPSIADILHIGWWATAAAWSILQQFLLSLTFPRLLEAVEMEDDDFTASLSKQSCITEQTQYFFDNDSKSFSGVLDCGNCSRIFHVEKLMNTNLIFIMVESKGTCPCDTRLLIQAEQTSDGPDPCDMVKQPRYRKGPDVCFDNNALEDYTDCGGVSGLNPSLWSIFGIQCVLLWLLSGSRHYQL

Molecular target: α2δ subunit derived from porcine brain tissue (Sus scrofa, UniProt O77773)
Assay: radioligand binding assay using [3H]gabapentin and the α2δ subunit
Details: read-out: α2δ Assay IC50, [3H]gabapentin, tested form: HCl

`CC(C)CC(CN)Cc1noc(=O)[nH]1` (stereo not shown) was tested, and the IC50 was 1.52 µM.
